# Source: patent US6664231B1, “Anti-fungal peptides” (priority 1993, dated 2003)
# System: Candida albicans SLU-1
# Assay: Survival of cyclosporin A-immunosuppressed mice systemically infected with Candida albicans
# Assay type: in vivo, mouse
# Details: cyclosporin A 10 mg/kg i.p.; 2×10^5 Candida cells; peptide 10 mg/kg, 6 doses; FIG. 7
# Method: Studies were also performed to determine the effectiveness of representative anti-fungal peptides in cyclosporin A-immunosuppressed mice systemically infected with Candida albicans SLU-1. Groups (15 animals/group) of 9 week-old male DBA/2J mice were immunosuppressed by pretreatment with 10 mg/kg (Day-1) of cyclosporin A administered by intraperitoneal injection. One day later (Day 0), the mice were inoculated with 2×10^5 Candida cells by intravenous injection in the tail vein. Immediately after fungal challenge, the mice were treated with a 0.1 mL volume of 10 mg/kg XMP.284, 10 mg/kg XMP.127, or PBS as a control. Cyclosporin A injections were repeated at Day 1. Day 3. Day 7, and Day 9. XMP.284, XMP.127 or PBS injections were repeated at Day 2, Day 4, Day 6, Day 8 and Day 10. […]. […] However.
smiles,measurement,value
CC[C@H](C)[C@H](NC(=O)[C@H](CC(C)C)NC(=O)[C@H](Cc1ccccc1)NC(=O)CNC(=O)[C@@H](NC(=O)[C@H](CCCCN)NC(=O)[C@H](CO)NC(=O)[C@@H](N)CCCCN)C(C)C)C(=O)N[C@@H](CCC(N)=O)C(=O)N[C@@H](CC(C)C)C(=O)N[C@@H](Cc1ccccc1)C(=O)N[C@@H](Cc1c[nH]cn1)C(=O)N[C@@H](CCCCN)C(=O)N[C@@H](CCCCN)C(N)=O [XMP.127],"protection against infection, survival compared with PBS controls",to a lesser extent
